Test results published in patent US9937178B2, “Methods of identifying and using MDM2 inhibitors” (DUKE UNIVERSITY, priority 2011, dated 2018).

Sequences of proteins named here, by UniProt entry; tags and fusion partners are left off.
UniProt Q00987, whole entry: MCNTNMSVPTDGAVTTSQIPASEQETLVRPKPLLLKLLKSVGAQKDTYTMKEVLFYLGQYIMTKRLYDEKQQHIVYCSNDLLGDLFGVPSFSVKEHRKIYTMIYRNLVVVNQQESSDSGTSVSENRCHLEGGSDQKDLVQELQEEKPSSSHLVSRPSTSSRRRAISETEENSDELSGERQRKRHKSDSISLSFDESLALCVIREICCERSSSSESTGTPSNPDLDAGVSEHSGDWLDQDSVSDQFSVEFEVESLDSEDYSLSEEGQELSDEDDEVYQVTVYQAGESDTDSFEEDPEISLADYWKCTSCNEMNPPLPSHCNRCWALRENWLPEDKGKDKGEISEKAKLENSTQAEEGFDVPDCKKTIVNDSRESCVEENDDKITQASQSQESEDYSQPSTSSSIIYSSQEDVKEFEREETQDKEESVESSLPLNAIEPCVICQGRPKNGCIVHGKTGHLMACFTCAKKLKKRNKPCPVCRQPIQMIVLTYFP

Assays:
Huwe1-MDM2 binding = Huwe1-MDM2 binding (Homo sapiens, UniProt Q00987); assay: Huwe1(C/S)-MDM2 co-immunoprecipitation in H1299 cells; assay type: cell-based; conditions: 10 μM Nutlin-3a, 6 hours
Experimental: Cells were transiently transfected with the indicated plasmid by FuGene6 (Roche) based on manufacturer's instruction. Cells were harvested and lysed with co-IP buffer (10 mM HEPES [pH 7.4], 150 mM KCl, 0.5% NP-40, 1 mM phenylmethylsulfonyl fluoride, 5 μg/ml leupeptin, and 5 μg/ml aprotinin). Cell lysate was incubated with anti-FLAG M2 agarose (Sigma) or anti-AH affinity matrix (Roche) at 4° C. for 2-3 hours. The bead pellet was washed three times with co-IP buffer and then incubated with SDS-sample buffer.

CAS-MDM2 interaction = target: T1, CAS-MDM2 interaction (Homo sapiens, UniProt Q00987); assay: CAS-MDM2 co-immunoprecipitation; assay type: cell-based; conditions: Nutlin-3a
T1 construct: association of endogenous MDM2 was analyzed by immunoblotting; expressed in transfected cells; host or cells: BT474 and rBT474 cells transfected with FLAG-CAS; MDM2 endogenous

## COc1ccc(C2=N[C@@H](c3ccc(Cl)cc3)[C@@H](c3ccc(Cl)cc3)N2C(=O)N2CCNC(=O)C2)c(OC(C)C)c1 [Nutlin-3a]
Huwe1-MDM2 binding
  binding of Huwe1(C/S) to endogenous MDM2: significantly reduced
CAS-MDM2 interaction
  MDM2 and CAS binding: significantly inhibited
